From patent publication US4066678A (priority 1975, dated 1978)

Experiments:
[1] = Volatility
[2] = Solubility; details: for solubility in organic solvents: usual organic solvents

Q: For 3-germylpropionic acid oxide, which volatility [1] is on record?
A: Its volatility is “poor volatility”.

Q: What about the solubility in water ([2]; oxide prepared by the present procedure (alkaline hydrolysis)) of the same substance?
A: The solubility in water was “relatively high solubility”.

Q: What about the solubility in water ([2]; product from hydrolysis of 3-trichlorogermylpropionic acid with water) of the same substance?
A: Its solubility in water is “sparingly soluble in water”.

Q: And the “solubility in organic solvents” value [2]?
A: The value was “low solubility in usual organic solvents”.

Q: What about the “solubility in organic solvents” value ([2]; listed as 3-Germylpropionic acid oxide) of the same substance?
A: The value was “poor solubility to organic solvents”.
